Assay results published in US8980830B2 (priority 2007, dated 2015).

Amino acid sequences for entries named in this document (tags omitted). Residues count along the entry.
UniProt P47871, 26-477: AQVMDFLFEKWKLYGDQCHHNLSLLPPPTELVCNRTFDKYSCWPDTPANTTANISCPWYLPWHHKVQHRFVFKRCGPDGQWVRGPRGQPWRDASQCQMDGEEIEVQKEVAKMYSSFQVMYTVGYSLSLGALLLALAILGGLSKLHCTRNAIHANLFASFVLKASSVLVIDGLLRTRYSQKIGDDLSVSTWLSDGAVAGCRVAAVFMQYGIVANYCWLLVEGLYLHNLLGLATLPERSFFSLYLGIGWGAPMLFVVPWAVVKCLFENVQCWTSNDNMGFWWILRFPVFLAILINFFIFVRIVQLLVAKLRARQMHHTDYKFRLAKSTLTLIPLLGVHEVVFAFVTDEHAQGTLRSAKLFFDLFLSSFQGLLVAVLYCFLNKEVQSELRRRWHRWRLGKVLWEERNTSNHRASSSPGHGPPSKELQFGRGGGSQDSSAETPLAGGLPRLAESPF
UniProt P43220, 24-463: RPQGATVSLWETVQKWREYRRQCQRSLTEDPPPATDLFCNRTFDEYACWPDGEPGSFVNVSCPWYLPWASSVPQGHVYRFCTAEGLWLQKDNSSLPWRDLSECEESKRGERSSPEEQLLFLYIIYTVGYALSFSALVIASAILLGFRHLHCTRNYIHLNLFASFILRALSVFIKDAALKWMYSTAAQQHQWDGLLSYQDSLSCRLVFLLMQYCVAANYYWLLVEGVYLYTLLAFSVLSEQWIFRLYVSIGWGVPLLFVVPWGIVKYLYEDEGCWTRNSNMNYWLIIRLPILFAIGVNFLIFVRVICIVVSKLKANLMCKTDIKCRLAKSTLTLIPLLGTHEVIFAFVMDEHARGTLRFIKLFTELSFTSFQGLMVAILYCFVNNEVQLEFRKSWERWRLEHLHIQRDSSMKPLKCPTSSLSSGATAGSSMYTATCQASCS

Assays:
[1] = biological target: Glucagon Receptor (Homo sapiens, UniProt P47871); assay: cAMP inhibition: antagonism of glucagon-induced cAMP at glucagon receptor; assay type: cell-based; parameters: expressed in transfected cells; host or cells: HEK293; conditions: IC50 at the glucagon receptor in response to 0.2 nM glucagon, Example 22; two assays, SD in parentheses
[2] = biological target: GLP-1 Receptor (Homo sapiens, UniProt P43220); assay: Functional assay, cAMP induction (luciferase reporter, HEK293) at GLP-1 receptor; assay type: cell-based; conditions: EC50 at the GLP-1 receptor, Example 22; SD in parentheses

- IC50 [1]: 7.04 nM and 22 nM
- EC50 [2]: 795 nM
SMILES: CSCC[C@H](NC(=O)[C@H](CC(C)C)NC(=O)[C@H](Cc1c[nH]c2ccccc12)NC(=O)[C@H](CCC(N)=O)NC(=O)[C@@H](NC(=O)[C@H](Cc1ccccc1)NC(=O)[C@H](CC(=O)O)NC(=O)[C@H](CCC(N)=O)NC(=O)[C@H](C)NC(=O)[C@H](CCCNC(=N)N)NC(=O)[C@H](CCCNC(=N)N)NC(=O)C(C)(C)NC(=O)[C@H](CC(=O)O)NC(=O)[C@H](CC(C)C)NC(=O)[C@H](Cc1ccc(O)cc1)NC(=O)[C@H](CCCCN)NC(=O)[C@H](CO)NC(=O)[C@H](Cc1ccc(O)cc1)NC(=O)[C@H](CC(=O)O)NC(=O)[C@H](CO)NC(=O)[C@@H](NC(=O)[C@@H](O)Cc1ccccc1)[C@@H](C)O)C(C)C)C(=O)N[C@@H](CC(N)=O)C(=O)N[C@H](C(N)=O)[C@@H](C)O [SEQ ID NO: 97]

“And” between values parts separate entries of the source, which are not always exact repeats. Equal entries are not always repeated.
